ChEMBL document CHEMBL1132964, “Selective ET(A) antagonists. 5. Discovery and structure-activity relationships of phenoxyphenylacetic acid derivatives” (J Med Chem, 2000)
Values joined by “and” are separate entries in the source; they are usually repeats but may differ in a detail not shown here. Identical values can stand only once.

Key:
[1] = tested on: Endothelin receptor type A (Rattus norvegicus); assay: Inhibition of Endothelin A receptor in pithed rats 3 hour after oral administration at 75 umol/kg
[2] = tested on: Endothelin receptor type A (Rattus norvegicus); assay: Inhibition of Endothelin A receptor in pithed rats 1.5 hour after oral administration at 75 uM/kg
[3] = tested on: Endothelin receptor type A (Rattus norvegicus); assay: Activity against Endothelin A receptor in pithed rats after intravenous administration at 25 umol/kg

Activity [1] [µM/kg] | Activity [2] | Activity [3] | Compound
7.7 | 5.9 µM/kg | 90 µM/kg | Cc1ccccc1[C@H](Oc1cc(OCc2ccncc2)ccc1C#N)C(=O)O
 |  | 19 µM/kg | Cc1ccccc1C(Oc1cc(OCc2ccsc2)ccc1C#N)C(=O)O (stereo not drawn)
 |  | 4.45 µM/kg | N#Cc1ccc(OCc2ccsc2)cc1OC(C(=O)O)c1ccccc1 (stereo not drawn)
13 | 9 µM/kg and 8 µM/kg | 85 µM/kg and 49 µM/kg | Cc1ccccc1C(Oc1cc(OCc2ccncc2)ccc1C#N)C(=O)O (stereo not drawn)
